## Antibody variant affinities, Ab-14 light chain, assay B

The measurements come from Li et al. 2023 (doi:10.1038/s41467-023-39022-2) through the FLAb antibody collection.

Target peptide (SARS-CoV-2 spike, HR2 region): PDVDLGDISGINAS

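The parent was found by panning a naive human phage display library on the peptide. Designed CDR sequences, proposed from the first random library and measured here. Their group label is 14L_En_Gibbs (En: ensemble of fine-tuned language models; Gibbs: Gibbs sampling). The scFvs were displayed on barcoded MATa yeast, the peptide on MATalpha yeast. After mating in shaken culture at 30 °C for 16 h, diploids were selected and their barcode pairs sequenced. The ratio of observed to expected reads was calibrated, replicate by replicate, on BCL2-family standards whose Kd was known from biolayer interferometry. There are six technical replicates.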

Parent scFv Ab-14: VH joined to VL by a 15-residue (Gly4Ser)3 linker. Changes lie in the light chain CDRs alone.
VH: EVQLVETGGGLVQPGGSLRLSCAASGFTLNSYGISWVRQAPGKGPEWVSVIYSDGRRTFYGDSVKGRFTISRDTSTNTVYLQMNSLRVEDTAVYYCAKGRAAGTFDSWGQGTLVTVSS
VL: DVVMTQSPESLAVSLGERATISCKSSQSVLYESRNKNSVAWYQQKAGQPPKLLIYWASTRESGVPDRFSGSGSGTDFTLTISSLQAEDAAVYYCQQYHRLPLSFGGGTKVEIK

The parent's light chain CDRs are KSSQSVLYESRNKNSVA, WASTRES, QQYHRLPLS; each variant's own CDRs replace them letter for letter. The read-out is the apparent dissociation constant on a log10 scale (nM): the lower, the stronger. Where no diploid with the target was found in that replicate, the entry reads "nd": below detection, most likely a poor binder, though not proof of it. In the paper, a design with two or fewer of six values counts as a poor binder. Nonspecific signal, from three strains lacking the peptide, appeared in 4% of pairings of all light chain designs, centred on 2.64 (5% of these signals below 1.59); values are not corrected for it. The control count says in how many pairings with the empty strains this scFv gave a signal, with their mean in brackets. Of ten entries with the parent sequence, four were seen in most replicates (averages 0.34 to 2.37), three in one and three in none, so single entries are noisy. A sequence measured in both rounds can read differently, since the two assays cover different ranges.

| # | CDR-L1 | CDR-L2 | CDR-L3 | log10 Kd, replicates | empty controls |
|---|---|---|---|---|---|
| 1 | KLSQGTYGLTQHASNVA | HDEMRWA | QQYDKLPLI | nd / nd / nd / nd / nd / nd | 0 of 18 |
| 2 | MISENYAGNTDNGKSIA | AEILQME | QQYHRLPLA | nd / nd / 1.19 / nd / 1.45 / nd | 0 of 18 |
| 3 | ALQQKGATLHEARQSIA | HSDTRAA | QQYSTLPLA | 0.91 / 0.23 / 0.49 / 0.82 / 0.94 / 0.76 | 0 of 18 |
| 4 | MITAVMNAYNGSFSSIA | DKTISVN | QQYHRLPLS | nd / 2.19 / nd / 2.25 / 2.25 / 1.71 | 0 of 18 |
| 5 | SFDLTKEGMENQQYSIA | ERNELMT | QDYHRLPLA | nd / 2.35 / nd / nd / nd / nd | 1 of 18 (1.93) |
| 6 | KLTHPTDLWLNHASSIA | DANISVE | QQYYWLPLT | 0.87 / 1.06 / 0.81 / 0.87 / 1.02 / 1.25 | 0 of 18 |
| 7 | VLSDTAVNQYDEADNIA | DKTETSV | QQYARLPLS | 1.42 / 1.05 / 1.25 / 1.51 / 1.19 / 1.34 | 1 of 18 (2.78) |
| 8 | QFHQGMIGDQRNMQSVA | NAQAAVP | QYYFRLPLT | 1.21 / 0.27 / 0.92 / 0.54 / 0.50 / 1.11 | 0 of 18 |
| 9 | KLSWKSLGFENEWMAIA | NTKERNA | QQYARLPLS | 1.66 / 1.79 / 1.70 / 1.46 / 2.27 / 1.45 | 1 of 18 (2.95) |
| 10 | RGQEDLQKGTNIGNNIA | EAQTVID | QQYAHLPLQ | 1.01 / 0.68 / 0.90 / 0.89 / 0.83 / 0.70 | 1 of 18 (1.34) |
| 11 | NFSYALFGMDAKKKSIA | ENEVTEY | QQYAKLPLQ | 0.85 / 1.16 / 0.74 / 0.75 / 1.00 / 0.62 | 2 of 18 (2.91) |
| 12 | VLSDTIENMASRADNIA | DTTETSY | QQYYRLPLS | 0.73 / 1.10 / 0.45 / 0.68 / 0.29 / 0.75 | 1 of 18 (2.47) |
| 13 | IMSDSQERDASRLNNIA | DDYTRAT | QQYARLPLS | 0.88 / 0.46 / 0.47 / 0.20 / 0.43 / 0.41 | 0 of 18 |
| 14 | RLKCTSEEHGRQNNAIA | AAAKLVT | QQYARLPLT | 1.73 / 1.07 / 0.52 / 1.13 / 0.54 / 0.86 | 0 of 18 |
| 15 | RFTEHLLMLESKIYNIA | NATKTME | QQYFRLPFV | 0.73 / 0.92 / 0.63 / 0.59 / 1.58 / 1.09 | 1 of 18 (2.15) |
| 16 | FIMHFGEESNLNSKNIA | AKNTRVD | QQYNRLPLS | 0.49 / 0.28 / 0.67 / 0.53 / 0.59 / 0.61 | 2 of 18 (2.50) |
| 17 | KLSQGTYGLTGHASNVA | HDEMRWA | QQYDKLPLI | nd / nd / nd / nd / nd / nd | 0 of 18 |
| 18 | MLQIEPNGYMGMRSNVA | DGSLVRM | QQYARLPLM | 1.01 / 0.71 / 1.70 / 1.24 / 2.09 / 1.57 | 0 of 18 |
| 19 | NLGGEDFQDTRGMKAVA | DVSEVGD | QHYSRLPLS | 0.61 / 0.46 / 0.45 / 0.51 / 0.73 / 0.63 | 3 of 18 (3.26) |
| 20 | MLTWDDDHETGRQNSIA | DAHERNT | QQYHQLPLI | 0.40 / 1.06 / 0.29 / -0.18 / 0.43 / 0.35 | 0 of 18 |
| 21 | HISYMDGHDGKNIHNVA | DTGVTSR | QQYSRLPLI | 0.45 / 0.17 / 0.39 / 0.16 / 0.17 / 0.19 | 1 of 18 (3.06) |
| 22 | HIDIINRGEDMKQDPIA | QADHREQ | QQYFHLPLA | 0.43 / 0.77 / 0.24 / 0.48 / 0.47 / 1.19 | 0 of 18 |
| 23 | HIQDDAGGLREQFDSVA | STEERSY | QQYHRLPLS | 0.94 / 1.85 / 0.67 / 0.65 / 0.86 / 1.01 | 0 of 18 |
| 24 | SLPNARPDGSLQKNNVA | EGTCRSD | QQYMRLPLF | 0.09 / -0.15 / -0.12 / -0.07 / -0.23 / 0.09 | 0 of 18 |
| 25 | SFDLTKSGMENERYSIA | ETSTLMT | QDYHRLPLY | 0.46 / 0.75 / 0.73 / 0.44 / 0.57 / 0.94 | 0 of 18 |
| 26 | RFPEHLLMLESKISNIA | NATKTME | QQYFRLPLV | 0.30 / 0.18 / 0.32 / 0.01 / 0.16 / 0.29 | 4 of 18 (2.57) |
| 27 | QLDQAYRVGALWTQSIA | HGSMRVQ | QCYNRLPLS | 0.68 / 0.68 / 0.56 / 1.39 / 0.94 / 1.37 | 0 of 18 |
| 28 | QMTHPEESWQNNQRSIA | NASASLD | QQYAQLPLM | 0.71 / 1.33 / 0.82 / 1.32 / 0.87 / 0.61 | 0 of 18 |
| 29 | MLTMFPNEPTGDSSNIA | DTNQLNT | QQYQRLPLM | 0.68 / 0.55 / 0.45 / 0.50 / 0.19 / 0.58 | 2 of 18 (2.65) |
| 30 | KISMEPLVEWNRAQAIA | DAHASYI | QQYFHLPLY | nd / nd / nd / 2.86 / 2.73 / nd | 0 of 18 |
| 31 | NLNTYYEGGFLNTDNIA | HGNMVEA | QQYDRLPLS | 0.44 / 0.66 / 0.66 / 0.39 / 0.40 / 1.04 | 0 of 18 |
| 32 | HIDKFNFSEGEKWNAIA | QDATRLQ | QSYQRLPLA | nd / nd / nd / nd / 2.14 / nd | 1 of 18 (3.89) |
| 33 | QLTQVQQEDTPGEYNVA | HAEVSGR | QQYSQLPLI | 1.58 / nd / nd / nd / nd / nd | 0 of 18 |
| 34 | SLVQEKSVGDKNMGNIA | AGNQLSV | QQYNRLPLS | 0.37 / 0.24 / 0.10 / 0.36 / -0.04 / 0.09 | 0 of 18 |
| 35 | HISYMDGHDRKNAHNIA | DTGVTSR | QQYSRLPLI | 0.29 / 0.09 / 0.08 / 0.13 / 0.12 / 0.30 | 4 of 18 (2.82) |
| 36 | KFDFQMPELNYQDNSIA | GMTVSIE | QQYFRLPLT | nd / nd / nd / nd / nd / nd | 0 of 18 |
| 37 | ALALTLHQVDSQMNNIA | EGMLRES | QQYNRLPLG | 0.72 / 1.74 / 0.46 / 0.70 / 1.07 / 0.78 | 0 of 18 |
| 38 | TLLYGVTEAAKPGKAIA | ENEERAQ | QQYFRLPLS | 0.66 / 0.72 / 1.26 / 0.60 / 1.17 / 0.46 | 1 of 18 (2.82) |

A selection of 3 entries from above:

| CDR-L1 | CDR-L2 | CDR-L3 | log10 Kd, replicates | empty controls |
|---|---|---|---|---|
| SFDLTKEGMENQQYSIA | ERNELMT | QDYHRLPLA | nd / 2.35 / nd / nd / nd / nd | 1 of 18 (1.93) |
| MLTMFPNEPTGDSSNIA | DTNQLNT | QQYQRLPLM | 0.68 / 0.55 / 0.45 / 0.50 / 0.19 / 0.58 | 2 of 18 (2.65) |
| NLGGEDFQDTRGMKAVA | DVSEVGD | QHYSRLPLS | 0.61 / 0.46 / 0.45 / 0.51 / 0.73 / 0.63 | 3 of 18 (3.26) |